This note sets out measurements from ChEMBL document CHEMBL3822371, “Rapid Discovery and Structure-Activity Relationships of Pyrazolopyrimidines That Potently Suppress Breast Cancer Cell Growth via SRC Kinase Inhibition with Exceptional Selectivity over ABL Kinase” (J Med Chem, 2016).

Chains of the proteins cited; added tags and fusions are not shown. Lines headed by an entry give the natural chain unless they say otherwise; changes in a name come on top.
UniProt P12931: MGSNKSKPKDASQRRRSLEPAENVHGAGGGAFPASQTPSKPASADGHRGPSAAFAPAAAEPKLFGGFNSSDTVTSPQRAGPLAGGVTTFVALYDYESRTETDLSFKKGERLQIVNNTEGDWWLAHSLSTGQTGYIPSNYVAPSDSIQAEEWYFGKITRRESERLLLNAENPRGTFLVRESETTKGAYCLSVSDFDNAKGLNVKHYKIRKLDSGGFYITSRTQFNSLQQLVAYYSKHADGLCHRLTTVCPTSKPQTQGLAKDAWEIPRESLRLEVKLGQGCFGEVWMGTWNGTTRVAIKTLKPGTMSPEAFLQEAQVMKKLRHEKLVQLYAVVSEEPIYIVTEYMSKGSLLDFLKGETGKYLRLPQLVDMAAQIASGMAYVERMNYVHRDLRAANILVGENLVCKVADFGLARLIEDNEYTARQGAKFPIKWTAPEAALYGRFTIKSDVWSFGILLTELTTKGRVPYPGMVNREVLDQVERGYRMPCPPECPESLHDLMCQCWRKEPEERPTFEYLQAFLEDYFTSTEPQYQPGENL

The term bioavailability denotes the share of a dose that reaches the circulation, judged against a reference dose that is usually intravenous. As usually defined, the Ki is the equilibrium dissociation constant of an inhibitor or competing ligand from its target. In general, IC50 refers to the concentration that gives 50% inhibition.

Data set [1] is described as follows: in vivo. Particulars: CD1, mouse, po, 10 mg/kg.
Data set [2] deals with T1, Proto-oncogene tyrosine-protein kinase Src (Homo sapiens, UniProt P12931). As to the kind of experiment: biochemical.
For data set [3], the target named is T1, Proto-oncogene tyrosine-protein kinase Src. As to the kind of experiment: biochemical. This is another data set of the same source.

In data set [1], `COc1cc(-c2nn(CCN3CCC(N(C)C)CC3)c3ncnc(N)c23)ccc1NC(=O)OC(C)(C)C` registered a bioavailability of 25.3%. This compound also displayed a Ki in data set [2] of 800 pM.
With `COc1cc(-c2nn(CCN3CCC(N4CCCC4)CC3)c3ncnc(N)c23)ccc1NC(=O)OC(C)(C)C`, in data set [3], the IC50 is below 500 pM.
